Data taken from article PMC4965700.

Sequences of proteins named here, by UniProt entry; tags and fusion partners are left off. Residues count along the entry.
UniProt P39940, 421-809: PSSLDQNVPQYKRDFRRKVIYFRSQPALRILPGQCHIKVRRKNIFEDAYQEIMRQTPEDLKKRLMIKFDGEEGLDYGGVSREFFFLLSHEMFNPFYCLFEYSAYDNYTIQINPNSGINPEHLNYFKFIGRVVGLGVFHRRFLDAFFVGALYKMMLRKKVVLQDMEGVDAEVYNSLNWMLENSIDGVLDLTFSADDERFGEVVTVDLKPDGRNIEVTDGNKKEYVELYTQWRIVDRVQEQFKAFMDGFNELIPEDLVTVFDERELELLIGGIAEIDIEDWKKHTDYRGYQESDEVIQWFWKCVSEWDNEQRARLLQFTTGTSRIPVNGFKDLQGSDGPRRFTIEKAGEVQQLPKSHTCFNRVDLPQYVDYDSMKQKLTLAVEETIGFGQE

Target: Rsp5 HECT (S. cerevisiae) (UniProt P39940)

apparent KM of the multi-turnover (MT) consumption of UbFluor by Rsp5 HECT, Michaelis–Menten fit of initial velocities by fluorescence polarization: 792 µM
Substance: UbFluor (from UniProt P0CG48 1-76)
